Data from PubChem BioAssay AID595 (National Center for Advancing Translational Sciences (NCATS), 2007).
Only a part is listed here, and it is no random draw. Some of these compounds have results that are not shown, active ones among them. Inconclusive results are not listed. Active and inactive are the calls of the source. The call rests on the fitted dose curve; in most records, active means well fitted curve in either direction with a large enough effect; inconclusive means small, poorly fitted or top-dose-only effect, or another doubt; inactive means flat fitted curve, though single readings scatter.

test system: Hsp90 C-terminal peptide / TPR2A (Hop) interaction, human; experiment: qHTS Assay for Disrupters of an Hsp90 Co-Chaperone Interaction; conditions: AlphaScreen TPR2A-His6 binding biotin-Hsp90 C-terminal peptide; at 11 µM (top of the series) unless noted
Text: NIH Chemical Genomics Center [NCGC]
NIH Molecular Libraries Screening Centers Network [MLSCN]
Hsp90 (heat shock protein 90) is the essential molecular chaperone and it accounts for 1-2% of all cytosolic proteins and is critical for the activity of diverse cellular proteins that are involved in a variety of cellular processes, including development, cell cycle, and steroid hormone signaling. Its client proteins include signaling kinases such as IGF1R, Akt, v-Src, Raf-1; regulators of cell survival such as Bcr-Abl; and transcription factors such as mutated p53, estrogen and progesterone receptors. Hsp90 has emerged as an important target for cancer treatment due to its essential role in maintaining transformation and regulating the function of oncogenic signaling proteins.
The in vivo function of Hsp90 is regulated by the binding and hydrolysis of ATP at its N-terminal. Geldanamycin binds to ATP site and inhibit Hsp90 function. Geldanamycin and its analogues are under clinical trials in cancer patients.
This domain contains the binding site for tetratricopeptide repeat (TPR) domains on HOP (Hsp Organizing Protein). TPR is a structural motif used by a significant number of cochaperones by which the in vivo function of Hsp90 is regulated. TPR2A on HOP binds specifically to MEEVD motif of the C-terminal of Hsp90.
A homogeneous AlphaScreen is developed to assess the interaction between TPR2A and MEEVD motif of the C-terminal of Hsp90 by using the isolated TPR2A domain and a synthesized 20mer Hsp90 C terminal peptide. AlphaScreen is two bead-based proximity-dependent chemical energy transfer luminescent assay platform. TPR2A-His-6 and biotinylated Hsp90 C terminal peptide will bring streptavidin donor beads and nickel chelate acceptor beads to a proximity range (less than 200 nm), and subsequently lead a chemical luminescent reaction upon exciting donor beads with 680 nm laser. Inhibition of TPR2A and MEEVD motif interaction by small molecules could attenuate or abolish this chemical luminescent reaction.
Counter screening: Biotinylated-His-6 (PerkinElmer) can be utilized as a counter screen, as it serves as a linker to bring streptavidin beads and nickel chelate beads together. The counter screen can exclude alpha screen platform false positives due to small molecules being metal chelators, biotin analogues and imidazole analogues, or due to interfering with oxygen release from donor beads. Such an assay should be utilized to qualify any activity observed in this screen.
NCGC Assay Protocol Summary:
The assay was performed on 1536-well white plate (untreated solid bottom). Liquids were dispensed by 1536-well plate washer (Kalypsys, San Diego, CA). Plates were read on EnVision (PerkinElmer, Boston, MA).TPR2A-His6 was produced using a bacteria expression system and purified using a well developed method (Ghosh et al., 2000). Hsp90 C terminal 20-mer peptide with or without an N-terminal biotin group are synthesized using automated solid phase synthesis by the Yale Keck facility. The composition of assay buffer was (in mM) 25 HEPES, 100 KCl, 2 MgCl2 and 2 DTT; 0.1% BSA and 0.01% Tween-20. TPR2A-His6 binding to biotin-Hsp90 will bring streptavidin donor beads and nickel chelate acceptor beads (PerkinElmer) together and can be measured by Alpha reading by EnVision (PerkinElmer). Free Hsp90 blocks biotin-Hsp90 binding to TPR2 and serves as a positive control in the current asssay.
The assay was performed at room temperature. […]
On the % scale 0 is the no-effect control and ±100 the full control effect.

Row | SMILES | activity change, negative = inhibition
1 | CN(C)c1cccc(C(=O)NCC2(N(C)C)CCCCC2)c1 | inactive: -3.22% [at 57 µM]
2 | CN1CCC[C@H](OC(=O)[C@](O)(c2ccccc2)C2CCCC2)C1 | inactive: -3.29%
3 | O=C(OC1CN2CCC1CC2)C(CO)(c1ccccc1)c1ccccc1 (stereo not given) | inactive: -6.03% [at 57 µM]
4 | CN1CC[C@H](OC(=O)[C@](O)(c2ccccc2)C2CCCC2)C1 | inactive: -1.41%
5 | C=C(C)C#C[C@@](O)(C(=O)OC1CCN(C)CC1)c1ccccc1 | inactive: -4.35%
